The values below come from patent publication US4758555A, “Method for treating convulsions and epilepsy with organic copper compounds” (priority 1986, dated 1988).

This series is described as follows: Rotating rod neurotoxicity. Conditions: dose and time given in the source.

On to Copper acetate [Cu(II)2 (acetate)4], for which the “Rotating rod toxicity (in words)” value was “Rotating rod toxicity at 30, 100, 300 and 600 mg/kg”.

For the substance Cu(II)2 (benzoate)4, the “Rotating rod toxicity (in words)” value is “Rotating rod toxicity at 300 mg/kg”.
